From patent publication US20260215432A1, “ANTIMICROBIAL CONJUGATED OLIGOELECTROLYTES AND METHODS THEREOF” (National University of Singapore, priority 2023, published 2026)

Key:
Assay in all cases: MIC, broth microdilution in CA-MHB
Format in all cases: cell-based
[1] = test system: E. facium (ATCC 19434)
Description: (§1) Antimicrobial activity was screened against a range of pathogens made up of clinically relevant ESKAPE pathogens by determination of the minimum inhibitory concentration (MIC) in cation-adjusted Mueller-Hinton broth (CA-MHB).
(§2) Minimum inhibitory concentrations of COEs were determined through a broth microdilution method in accordance with the Clinical and Laboratory Standards Institute (CLSI) guidelines M07-A10. A single bacterial colony was isolated from an overnight culture and grown to mid-log phase (OD600~0.8). Compounds were prepared as a stock solution in DMSO and diluted in a sterile flat-bottom 96-well plate in CA-MHB. Subsequent concentrations were prepared by two-fold dilution of the initial solution. An equivalent volume of bacteria was added to the compound to a final concentration of 5×10^5 cfu/mL. Plates were incubated at 37° C. for 16-18 hours, and read at OD600 using a microplate reader (TECAN Spark®). […] MIC values were determined for each compound in triplicate.

[2] = test system: E. faecalis OG1RF (ATCC 47077)
Description: as §1, §2

[3] = test system: Methicillin-resistant S. aureus (ATCC BAA1717)
Description: as §1, §2

[4] = test system: S. aureus (ATCC 29213)
Description: as §1, §2

Polymyxin B [reference compound]
>128 µg/mL: MIC FAC [1] | MIC FAE [2] | MIC MRSA [3] | MIC SA [4]
